Reference: patent US20250152585A1, “PHARMACEUTICAL COMPOUND” (Duke Street Bio Limited, priority 2022, published 2025)

Protein sequences, listed by entry. Tags and fused reporters are not part of them.
UniProt Q9UGN5, whole entry: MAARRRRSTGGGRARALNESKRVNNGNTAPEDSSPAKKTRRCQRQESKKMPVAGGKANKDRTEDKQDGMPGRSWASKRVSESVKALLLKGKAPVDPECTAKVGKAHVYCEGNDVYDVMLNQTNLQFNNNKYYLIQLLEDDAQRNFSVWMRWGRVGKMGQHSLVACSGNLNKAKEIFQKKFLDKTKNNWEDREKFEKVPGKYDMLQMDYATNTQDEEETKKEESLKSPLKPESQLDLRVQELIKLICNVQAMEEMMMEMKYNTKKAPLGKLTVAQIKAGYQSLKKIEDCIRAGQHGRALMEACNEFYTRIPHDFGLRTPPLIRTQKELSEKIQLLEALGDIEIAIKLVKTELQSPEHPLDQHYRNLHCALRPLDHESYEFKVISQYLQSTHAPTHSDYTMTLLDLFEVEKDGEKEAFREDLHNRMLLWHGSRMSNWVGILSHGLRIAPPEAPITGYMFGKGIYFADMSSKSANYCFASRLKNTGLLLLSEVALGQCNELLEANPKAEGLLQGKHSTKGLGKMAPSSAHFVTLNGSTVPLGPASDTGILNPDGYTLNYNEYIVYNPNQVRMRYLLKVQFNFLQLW
UniProt P09874, whole entry: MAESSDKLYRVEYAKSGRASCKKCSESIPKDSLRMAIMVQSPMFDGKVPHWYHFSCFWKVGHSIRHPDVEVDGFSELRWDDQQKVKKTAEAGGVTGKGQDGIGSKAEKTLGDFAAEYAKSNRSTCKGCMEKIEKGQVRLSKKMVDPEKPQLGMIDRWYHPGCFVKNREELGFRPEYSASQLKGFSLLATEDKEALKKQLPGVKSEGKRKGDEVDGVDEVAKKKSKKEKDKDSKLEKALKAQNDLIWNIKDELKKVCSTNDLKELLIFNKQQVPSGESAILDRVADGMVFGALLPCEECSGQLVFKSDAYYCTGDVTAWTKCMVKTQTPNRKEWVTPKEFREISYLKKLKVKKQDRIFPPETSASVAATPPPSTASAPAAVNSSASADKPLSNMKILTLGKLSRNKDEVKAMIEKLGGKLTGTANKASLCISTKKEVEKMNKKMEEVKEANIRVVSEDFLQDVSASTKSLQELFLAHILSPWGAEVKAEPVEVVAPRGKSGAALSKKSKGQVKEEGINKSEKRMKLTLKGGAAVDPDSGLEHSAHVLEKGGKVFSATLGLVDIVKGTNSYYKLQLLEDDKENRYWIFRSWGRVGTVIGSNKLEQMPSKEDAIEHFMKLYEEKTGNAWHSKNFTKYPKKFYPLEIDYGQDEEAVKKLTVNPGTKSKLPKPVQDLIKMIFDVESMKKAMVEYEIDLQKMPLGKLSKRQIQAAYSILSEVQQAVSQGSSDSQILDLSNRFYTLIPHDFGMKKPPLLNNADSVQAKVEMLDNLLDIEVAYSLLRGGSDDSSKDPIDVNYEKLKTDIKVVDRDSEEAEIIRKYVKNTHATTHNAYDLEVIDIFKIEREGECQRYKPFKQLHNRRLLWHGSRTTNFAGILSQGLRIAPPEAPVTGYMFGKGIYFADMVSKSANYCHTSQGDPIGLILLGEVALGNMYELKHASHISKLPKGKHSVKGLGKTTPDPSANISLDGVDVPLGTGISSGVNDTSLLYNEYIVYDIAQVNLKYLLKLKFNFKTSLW

What was measured:
PARP2 = PARP2 (Homo sapiens, UniProt Q9UGN5); test: NanoBRET cellular target occupancy assay, PARP2; conditions: read-out: PARP2 NanoBRET; HEK293 cells transiently transfected with PARP2-NanoLuc fusion; tracer 2 nM; 2 hours at 37° C.; Kd by Cheng-Prussoff
From the text: NanoBRET Cellular Target Occupancy Assay

PARP1 = PARP1 (Homo sapiens, UniProt P09874); test: NanoBRET cellular target occupancy assay, PARP1; assay type: cell-based; conditions: for Selectivity: NanoBRET, PARP1 over PARP2, Kd (PARP2)/Kd (PARP1); for Kd: read-out: PARP1 NanoBRET, HEK293 cells transiently transfected with PARP1-NanoLuc fusion, tracer 11 nM, 2 hours at 37° C., Kd by Cheng-Prussoff
[1] = biological target: T1, full length N-terminally FLAG-tagged PARP1 (Homo sapiens, UniProt P09874); test: PARP1 probe displacement HTRF assay; conditions: for Selectivity: PARP1 over PARP2, ratio Kd (PARP2)/Kd (PARP1); for Kd: read-out: PARP1 HTRF, binned Kd
[2] = biological target: N-terminally FLAG-tagged PARP2 (amino acids 1-583) (Homo sapiens, UniProt Q9UGN5); test: PARP2 probe displacement HTRF assay; conditions: read-out: PARP2 HTRF, binned Kd
Experimental: This assay was performed under identical conditions as for PARP1, except that N-terminally FLAG-tagged PARP2 (amino acids 1-583) was used instead of PARP1, and PARP1/2 binding probe was used at 10-fold probe Kd=540 nM. Data analysis was performed identical as for PARP1.

[3] = biological target: T1, full length N-terminally FLAG-tagged PARP1; test: PARP1 biochemical DELFIA assay (auto-PARylation); conditions: read-out: PARP1 DELFIA
[4] = binned IC50, PARP1 biochemical DELFIA assay
[5] = binned IC50, biochemical auto-PARylation assay

| SMILES | Kd (PARP2) | Selectivity (PARP1) | Kd (PARP1) | Selectivity ([1]; probe displacement HTRF) | Kd ([1]; PARP1 probe displacement HTRF) | Kd ([2]; PARP2 probe displacement HTRF) | IC50 [3, 4] | Kd ([1]; probe displacement HTRF) | Kd ([2]; probe displacement HTRF) | IC50 [3, 5] |
| --- | --- | --- | --- | --- | --- | --- | --- | --- | --- | --- |
| CNC(=O)c1cc(C)c(N2CCC(N3CCC(c4cc5cccc(F)c5c(=O)[nH]4)C3)CC2)cn1 (racemic) | 100 to 1000 nM | + (+ indicates a value of 10 to less than 50) | < 10 nM | + (+ indicates a value of 10 to less than 50) | < 10 nM | 10 to 100 nM | < 10 nM | – | – | – |
| O=C(NCC(F)F)c1ccc(N2CCC(N3CCC(c4cc5cccc(F)c5c(=O)[nH]4)C3)CC2)cn1 (single isomer, unassigned) | 10 to 100 nM | ++ (++ indicates a value of 50 to less than 100) | < 10 nM | + (+ indicates a value of 10 to less than 50) | – | – | – | < 10 nM | 10 to 100 nM | < 10 nM |
| N#Cc1ccc(N2CCC(N3CCC(c4cc5cccc(F)c5c(=O)[nH]4)C3)CC2)c(F)c1 (single isomer, unassigned) [Compound 356b] | 1000 to 10000 nM | +++ (+++ indicate a value of at least 100) | < 10 nM | +++ (+++ indicate a value of at least 100) | – | – | – | < 10 nM | 100 to 1000 nM | < 10 nM |
| CCc1ccc(C2CCN(C3CCN(c4ccc(C(=O)NCC(F)(F)F)nc4F)CC3)C2)[nH]c1=O (single isomer, unassigned) [Compound 285b] | 100 to 1000 nM | +++ (+++ indicate a value of at least 100) | < 10 nM | +++ (+++ indicate a value of at least 100) | – | – | – | < 10 nM | 100 to 1000 nM | < 10 nM |
| CNC(=O)c1ccc(N2CCC(N3CCC(c4cc5c(F)cc(F)cc5c(=O)[nH]4)C3)CC2)cn1 (single isomer, unassigned) [Compound 186a] | 10 to 100 nM | +++ (+++ indicate a value of at least 100) | < 10 nM | + (+ indicates a value of 10 to less than 50) | < 10 nM | 10 to 100 nM | < 10 nM | – | – | – |
| CNC(=O)c1cc(C(F)(F)F)c(N2CCC(N3CCC(c4cc5ccc(F)cc5c(=O)[nH]4)C3)CC2)cn1 (single isomer, unassigned) [292a] | – | – | – | − (− indicates a value of less than 10) | – | – | – | 100 to 1000 nM | 1000 to 10000 nM | 10 to 100 nM |
| CC(=O)Nc1ccc(F)cc1N1CCC(N2CCC(c3cc4ccccc4c(=O)[nH]3)C2)CC1 (stereo not shown) | – | – | – | + (+ indicates a value of 10 to less than 50) | – | – | – | 100 to 1000 nM | 1000 to 10000 nM | 10 to 100 nM |
| O=C(NC1CC1)c1ccc(N2CCC(N3CCC(c4cc5cccc(F)c5c(=O)[nH]4)C3)CC2)c(F)n1 (single isomer, unassigned) [350b] | 10 to 100 nM | +++ (+++ indicate a value of at least 100) | < 10 nM | ++ (++ indicates a value of 50 to less than 100) | – | – | – | < 10 nM | 10 to 100 nM | < 10 nM |
| CNC(=O)c1ncc(N2CCC(N3CCC(c4cc5cccc(F)c5c(=O)[nH]4)C3)CC2)cc1F (single isomer, unassigned) [352a] | 100 to 1000 nM | +++ (+++ indicate a value of at least 100) | < 10 nM | +++ (+++ indicate a value of at least 100) | – | – | – | < 10 nM | 10 to 100 nM | < 10 nM |
| CCc1ccc(C2CCN(C3CCN(c4ccc(C(=O)NCCF)nc4F)CC3)C2)[nH]c1=O (single isomer, unassigned) | – | – | – | +++ (+++ indicate a value of at least 100) | – | – | – | < 10 nM | 100 to 1000 nM | < 10 nM |
| CNC(=O)c1cc(F)c(N2CCC(N3CCC(c4cc5cccc(F)c5c(=O)[nH]4)C3)CC2)cn1 (stereo not shown) | – | – | – | + (+ indicates a value of 10 to less than 50) | – | – | – | < 10 nM | 10 to 100 nM | < 10 nM |
| O=C(NC1CC1)c1ccc(N2CCC(N3CCC(c4cc5cccc(F)c5c(=O)[nH]4)C3)CC2)c(F)n1 (single isomer, unassigned) [350a] | – | – | – | +++ (+++ indicate a value of at least 100) | – | – | – | < 10 nM | 100 to 1000 nM | < 10 nM |
| CNC(=O)c1ncc(N2CCC(N3CCC(c4cc5cccc(F)c5c(=O)[nH]4)C3)CC2)cc1F (single isomer, unassigned) [352b] | – | – | – | ++ (++ indicates a value of 50 to less than 100) | – | – | – | < 10 nM | 100 to 1000 nM | < 10 nM |
| CNC(=O)c1ccc(N2CCC(N3CCC(c4cc5cc(O)ccc5c(=O)[nH]4)C3)CC2)cn1 (stereo not shown) | – | – | – | +++ (+++ indicate a value of at least 100) | – | – | – | < 10 nM | 100 to 1000 nM | < 10 nM |
| CCc1ccc(C2CCN(C3CCN(c4ccc(C(=O)NC5CC5)nc4F)CC3)C2)[nH]c1=O (single isomer, unassigned) [Compound 353a] | – | – | – | +++ (+++ indicate a value of at least 100) | – | – | – | < 10 nM | 100 to 1000 nM | < 10 nM |
| CNS(=O)(=O)c1ccc(N2CCC(N3CCC(c4cc5ccccc5c(=O)[nH]4)C3)CC2)cc1 (single isomer, unassigned) [348b] | – | – | – | − (− indicates a value of less than 10) | – | – | – | 100 to 1000 nM | 100 to 1000 nM | 100 to 1000 nM |

Like-named read-outs stand apart in the source and are kept apart here.
